Data: patent EP3338775B1, “USE OF BUTYLIDENEPHTHALIDE” (Everfront Biotech Inc., priority 2015, dated 2017)
Several values for one entry are separate records, joined by “and”; a condition that tells them apart may be missing. Equal values may be shown once.

System: brain CSCs ^CD133+
Assay: MTT cell viability assay on brain CSCs CD133+
Assay type: cell-based
Settings: 24 h, read-out: IC50 to brain CSCs ^CD133+
From the text: Thereafter, a cell viability assay, MTT assay, was utilized to analyze the viabilities of brain CSCs ^CD133+ and malignant glioma DBTRG cells. […]

For O=NN(CCCl)C(=O)NCCCl [BCNU, bis-chloroethylnitrosourea], the IC50 was 378 µM and 80.8 µg/mL.
